The results in this text go back to BindingDB's records for patent US9199927 (Astellas Pharma, 2015).

Each structure is given as a SMILES string.

The assay addresses T1, Trypsinogen 16 (Mus musculus, UniProt Q9Z1R9).
T1 sequence (Q9Z1R9 whole entry): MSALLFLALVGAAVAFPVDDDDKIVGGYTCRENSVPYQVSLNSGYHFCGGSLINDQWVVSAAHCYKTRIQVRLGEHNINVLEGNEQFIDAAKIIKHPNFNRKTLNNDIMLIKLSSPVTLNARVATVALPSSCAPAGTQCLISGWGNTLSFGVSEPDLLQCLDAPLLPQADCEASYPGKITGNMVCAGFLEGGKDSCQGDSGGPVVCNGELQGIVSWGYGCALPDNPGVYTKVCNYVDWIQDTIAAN
Description: Inhibition Assay. As to conditions: pH 8; 25 °C. How it is done:
The compound was dissolved in dimethyl sulfoxide (DMSO), and diluted to an arbitrary concentration (A). A was 100-fold diluted with a buffer (0.1 M Tris (pH 8.0), 0.15 M NaCl, 10 mM CaCl2, 0.05% Brij38) (B). The r-h trypsin was diluted with a buffer to 0.088 ug/mL, and the m-trypsin was diluted with a buffer to 1/50 (C). […] The substrate solution of a substrate for the enzyme reaction, BZiPAR, (Rhodamine Reference Substrate) was diluted with a buffer to 5 umol/L (D). B; 5 uL, C; 5 uL, and D; 10 uL were added to a 384-plate, and incubated at room temperature for 30 minutes. The fluorescent signals were detected with Ex/Em = 497/520 using Tecan Safire Fluorometer. The compound was reviewed from 2500 nM to its 3-fold value, 0.0075 nM, at 12 concentrations, and the inhibitory rate of each compound was calculated.

A word on the IC50: it is the concentration at which inhibition is half-maximal. Read a low IC50 as higher potency. For the molecule `N=C(N)Nc1ccc(C(=O)Oc2ccc(CCC(=O)N[C@@H](CC(=O)O)c3ccccc3)c(Cl)c2)cc1` [US9199927, 23], inhibition was half-maximal at 0.28 nM (IC50).
